# From US20240262848A1, “HETEROCYCLIC COMPOUNDS, COMPOSITIONS THEREOF, AND METHODS OF TREATMENT THEREWITH” (BeiGene, Ltd., priority 2022, published 2024)
# Chains of the proteins cited; added tags and fusions are not shown. Lines headed by an entry give the natural chain unless they say otherwise; changes in a name come on top. Residues count along the entry.
# UniProt P01116, 1-188 isoform 2: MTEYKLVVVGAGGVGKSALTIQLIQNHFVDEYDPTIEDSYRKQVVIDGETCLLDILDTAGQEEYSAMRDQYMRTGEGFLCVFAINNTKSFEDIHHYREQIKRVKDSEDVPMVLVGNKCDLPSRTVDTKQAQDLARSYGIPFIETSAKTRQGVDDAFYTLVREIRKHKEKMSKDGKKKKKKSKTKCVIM
# UniProt P01116, 1-188 isoform 2 G12D: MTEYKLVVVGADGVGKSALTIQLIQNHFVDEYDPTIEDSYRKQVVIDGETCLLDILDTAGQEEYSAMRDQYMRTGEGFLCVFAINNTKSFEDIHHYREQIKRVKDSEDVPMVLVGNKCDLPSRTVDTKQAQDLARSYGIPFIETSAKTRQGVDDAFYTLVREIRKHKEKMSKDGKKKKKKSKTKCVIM
# UniProt P01116, 1-169 isoform 2 G12V limits assumed: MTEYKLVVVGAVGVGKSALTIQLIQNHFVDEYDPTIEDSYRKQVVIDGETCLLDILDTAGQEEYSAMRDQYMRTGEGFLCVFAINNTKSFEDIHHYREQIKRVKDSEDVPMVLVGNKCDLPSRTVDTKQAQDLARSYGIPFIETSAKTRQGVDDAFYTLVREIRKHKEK
# What was measured:
# [1] = molecular target: GST-tagged GDP-loaded WT KRAS (amino acids 1-188) (Homo sapiens, UniProt P01116)
# Protocol: (§1) This assay was used to identify compounds which bind to GDP-loaded KRAS protein and are able to displace a biotinylated probe occupying the KRAS binding site. GST-tagged GDP-loaded WT KRAS (amino acids 1-188) and GST-tagged GDP-loaded KRAS G12D (amin acids 1-188) were expressed in E. coli and purified in house. All protein and reaction solutions were prepared in assay buffer containing 50 mM HEPES pH7.5, 50 mM NaCl, 1 mM MgCl2, 1 mM TCEP, 0.01% BSA, and 0.008% Brij-35. Purified WT KRAS (3 nM final concentration) or KRAS G12D protein (0.5 nM final concentration) was incubated with a 3-fold serially diluted compound in the assay plate (384 well microplate, black, Corning). Plates are incubated at 24° C. for 1 hr. Following the incubation, biotinylated probe 1 (60 nM final assay concentration) for WT KRAS and biotinylated probe 2 (4 nM final assay concentration) for KRAS G12D was added to the assay plate, respectively. […] The TR-FRET signals (ex337 nm, em665 nm 620 nm) were read on BMG PHERAstar FSX instrument. The inhibition percentage of KRAS protein binding with biotinylated probe in presence of increasing concentrations of compounds was calculated based on the ratio of fluorescence at 665 nm to that at 620 nm. The IC50 value of each compound was calculated from fitting the data to the four-parameter logistic model by Dotmatics.
# [2] = tested on: pERK1/2(THR202/TYR204) level in AsPC-1 cell line; assay: KRAS G12D pERK assay in AsPC-1 cells (HTRF); conditions: read-out: AsPC-1 pERK IC50, Table 5, 2 h compound treatment
# Protocol: AsPC-1 cell line was used in this study. Cells were maintained in RPMI-1640 supplemented with 10% fetal bovine serum (Thermo Fisher), 50 units/ml, penicillin and streptomycin (Thermo Fisher) and kept at 37° C. in a humidified atmosphere of 5% CO2 in air. Cells were reinstated from frozen stocks that were laid down within 30 passages from the original cells purchased. 30000 cells per well were seeded into a 96-well plate and incubated overnight. Cells were treated with a 10-point dilution series. The final compound concentration is from 0 to 10 μM. After 2 h compound treatment, cells were lysed, and the pERK1/2(THR202/TYR204) level in the cell lysates was detected by HTRF kit (Cisbio). In brief, a total of 16 μL of cell lysate from each well of a 96-well plate was transferred to a 384-well white assay plate. Lysate from each well was incubated with 2 μL of Eu3+-cryptate (donor) labeled anti-phospho-ERK1/2 and 2 μL of D2 (acceptor) labeled anti-phospho-ERK1/2 antibodies (Cisbio) overnight in dark at room temperature. When the donor and acceptor are in close proximity, excitation of the donor with laser triggers a Fluorescence Resonance Energy Transfer (FRET) towards the acceptor, which in turn fluoresces at 655 nm wavelength. FRET signals were measured using a PHERAstar FSX reader (BMG Labtech). […]
# [3] = molecular target: GST-tagged GDP-loaded KRAS G12V (amino acids 1-169) (Homo sapiens, UniProt P01116, G12V); assay: KRAS G12V probe displacement assay (TR-FRET); conditions: read-out: KRAS^G12V Probe Displacement Assay IC50; Table 4; KRAS G12V 2 nM, biotinylated probe 2 2.5 nM
# Protocol: (§2) This assay was used to identify compounds which bind to GDP-loaded KRAS protein and are able to displace a biotinylated probe occupying the KRAS binding site. GST-tagged GDP-loaded WT KRAS (amino acids 1-169) and GST-tagged GDP-loaded KRAS G12V (amino acids 1-169) were expressed in E. coli and purified in house. All protein and reaction solutions were prepared in assay buffer containing 50 mM HEPES pH7.5, 50 mM NaCl, 1 mM MgCl2, 1 mM TCEP, 0.01% BSA, and 0.008% Brij-35. Purified WT KRAS (3 nM final concentration) or KRAS G12V protein (2 nM final concentration) was incubated with a 3-fold serially diluted compound in the assay plate (384 well microplate, black. Corning). Plates are incubated at 24 °C for 1 hr. Following the incubation, biotinylated probe 1 (60 nM final assay concentration) for WT KRAS and biotinylated probe 2 (2.5 nM final assay concentration) for KRAS G12V was added to the assay plate, respectively. After 1 hr incubation at 24° C. […] The TR-FRET signals (ex337 nm, em665 nm/620 nm) were read on BMG PHERAstar FSX instrument. The inhibition percentage of KRAS protein binding with biotinylated probe in presence of increasing concentrations of compounds was calculated based on the ratio of fluorescence at 665 nm to that at 620 nm. The IC5% value of each compound was calculated from fitting the data to the four-parameter logistic model by Dotmatics.
# [4] = molecular target: GST-tagged GDP-loaded KRAS G12D (amin acids 1-188) (Homo sapiens, UniProt P01116, G12D); assay: KRAS G12D probe displacement assay (TR-FRET); conditions: read-out: KRAS^G12D Probe Displacement Assay IC50; Table 5; KRAS G12D 0.5 nM, biotinylated probe 2 4 nM
# Protocol: as §1
# [5] = molecular target: GST-tagged GDP-loaded WT KRAS (amino acids 1-169) (Homo sapiens, UniProt P01116); assay: KRAS WT probe displacement assay (run with the KRAS G12V assay, TR-FRET); conditions: read-out: KRAS^WT Probe Displacement Assay IC50; Table 4; WT KRAS 3 nM, biotinylated probe 1 60 nM
# Protocol: as §2
# [6] = tested on: pERK1/2(THR202/TYR204) level in SW620 cell line; assay: KRAS G12V pERK assay in SW620 cells (HTRF); conditions: read-out: SW620 pERK IC50, Table 4, 2 hrs compound treatment
# Protocol: SW620 cell line was used in this study. Cells were maintained in RPMI 1640 supplemented with 10% fetal bovine serum (Thermo Fisher), 50 units/mL penicillin and streptomycin (Thermo Fisher) and kept at 37° C. in a humidified atmosphere of 5% CO2 in air. Cells were reinstated from frozen stocks that were laid down within 30 passages from the original cells purchased. 40000 cells per well were seeded into a 96-well plate and incubated overnight. Cells were treated with a 10-point dilution series. The final compound concentration is from 0 to 10 μM. After 2 hrs compound treatment, cells were lysed, and the pERK1/2(THR202/TYR204) level in the cell lysates was detected by HTRF kit (Cisbio). In brief, a total of 16 μL of cell lysate from each well of a 96-well plate was transferred to a 384-well white assay plate. Lysate from each well was incubated with 2 μL of Eu3+-cryptate (donor) labeled anti-phospho-ERK1/2 and 2 μL of D)2 (acceptor) labeled anti-phospho-ERK1/2 antibodies (Cisbio) overnight in dark at room temperature. When donor and acceptor are in close proximity, excitation of the donor with laser triggers a Fluorescence Resonance Energy Transfer (FRET) towards the acceptor, which in turn fluoresces at 655 nm wavelength. FRET signals were measured using a PHERAstar FSX reader (BMG Labtech). […]
smiles,measurement,setting,value
Cc1cc(N)cc(-c2nc3c4c(nc(OC[C@@]56CCCN5C[C@H](F)C6)nc4c2F)N(C)[C@H]2CCOC[C@@H]2O3)c1C(F)(F)F,IC50,[1],580 pM
same,IC50,[2],16000 pM
same,IC50,[3],420 pM
same,IC50,[4],320 pM
same,IC50,[5],580 pM
same,IC50,[6],7300 pM
